We go through 1 compound from US20100144743A1, “COMPOSITIONS AND METHODS FOR INHIBITION OF TYROSINE KINASES” (BOARD OF REGENTS, THE UNIVERSITY OF TEXAS SYSTEM, priority 2006, published 2010).

Read-outs that look alike come from different tables or passages of the source.

One assay relates to HIF-1. The assay can be described thus: HIF-1 GFP/DsRFP expression (G/R) in C6#4 cells stimulated by CoCl2. It counts as cell-based.
A further assay concerns C6#4 cells. The assay is described as follows: WST-1 cell viability (proliferation) test in C6#4 cells. In general terms: Tetrazolium assays rely on reduction of a dye to a coloured formazan, in cell work by metabolically active cells.

`N[C@@H](Cc1ccc([N+]([O-])(CCCl)CCCl)cc1)C(=O)O`: the “G/R:WST-1 Ratio Mean” value was 2.1 in the assay with HIF-1 (mean of 3 experiments, Table 3) and 2.133 in the assay with HIF-1 (mean, Table 4). Besides, the EC50 was 27.9 µM with HIF-1 (read-out: G/R (EC-50) 1 ex, experiment 1); 43.3 µM in the assay on HIF-1 (read-out: G/R (EC-50) 2 ex, experiment 2); 64.4 µM in the assay with HIF-1 (read-out: G/R (EC-50) 3 ex, experiment 3); 45.2 µM with HIF-1 (read-out: G/R (EC-50), 24 h exposure, GFP normalized to RFP, Table 2); 45.2 µM with HIF-1 (read-out: G/R (REC-50) Mean, mean, Table 4); 80.2 µM with C6#4 cells (read-out: WST-1 (EC-50) 1 ex, experiment 1). Also, the EC50 came out at 83.5 µM in the assay on C6#4 cells (read-out: WST-1 (EC-50) 2 ex, experiment 2); 101 µM with C6#4 cells (read-out: WST-1 (EC-50) 3 ex, experiment 3); 88.2 µM in the assay on C6#4 cells (read-out: WST-1 (EC-50) Mean, mean, Table 4); 88.2 µM with C6#4 cells (read-out: WST-1 (EC-50), 24 h exposure, WST-1 4 h, Table 2).
